System: Mus musculus
Assay: Antinociceptive activity in sc dosed mouse assessed as inhibition of acetic acid-induced writhing administered 15 mins before acetic acid challenge

With `CN(C(=O)Cc1ccc(Cl)c(Cl)c1)C1CCCCC1N1CCCC1` (stereo unspecified) as the molecule, how does the ED50 read?
Its ED50 is 1.16 mg/kg.
